Data on 2 compounds can be found in paper PMC11315827 (Drugs in R&D, 2024).

Sequences of proteins named here, by UniProt entry; tags and fusion partners are left off. A change or cut given only in a name is not applied to a line headed by its entry.
UniProt Q06187: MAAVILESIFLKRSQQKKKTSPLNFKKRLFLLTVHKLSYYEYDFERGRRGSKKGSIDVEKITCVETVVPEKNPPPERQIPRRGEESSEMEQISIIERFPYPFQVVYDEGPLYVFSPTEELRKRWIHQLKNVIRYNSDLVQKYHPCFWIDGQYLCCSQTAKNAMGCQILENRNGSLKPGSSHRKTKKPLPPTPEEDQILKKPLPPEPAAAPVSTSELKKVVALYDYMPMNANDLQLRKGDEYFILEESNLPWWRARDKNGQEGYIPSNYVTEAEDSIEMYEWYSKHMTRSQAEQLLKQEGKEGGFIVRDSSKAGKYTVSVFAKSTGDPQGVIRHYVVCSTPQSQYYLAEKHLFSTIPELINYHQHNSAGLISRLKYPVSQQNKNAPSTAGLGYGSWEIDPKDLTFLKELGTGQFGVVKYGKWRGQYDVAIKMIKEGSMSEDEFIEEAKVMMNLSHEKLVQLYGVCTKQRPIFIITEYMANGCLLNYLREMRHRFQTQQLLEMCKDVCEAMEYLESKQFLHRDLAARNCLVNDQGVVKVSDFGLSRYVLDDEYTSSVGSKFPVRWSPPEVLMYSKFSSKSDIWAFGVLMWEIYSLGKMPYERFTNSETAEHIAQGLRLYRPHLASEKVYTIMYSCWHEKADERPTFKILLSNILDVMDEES

Values joined by “and” are separate entries in the source; they are usually repeats but may differ in a detail not shown here. Equal entries are not always repeated.

Data set [1] has as its target T1, BTK (Homo sapiens, UniProt Q06187). As to the kind of experiment: Microfluidic kinetic assay of BTK phosphotransferase activity.
The target in data set [2] is T1, BTK. As to the kind of experiment: biochemical.
The conditions of data set [3]: pwMS, single timepoint 2-h post-administration; cited from earlier work.
Data set [4] in a line: Nonhuman primate PK study, plasma and CSF. Conditions: oral 10 mg/kg.

On BTK [1], `C[C@H]1CN(C2COC2)CCN1c1ccc(Nc2cc(-c3ccnc(N4CCn5c(cc6c5CC(C)(C)C6)C4=O)c3CO)cn(C)c2=O)nc1` [Fenebrutinib] registered an inhibitory constant (Ki) of 4.7 nM. The compound also registered a concentration for half-maximal inhibition (IC50) at BTK [2] of 6.21 nM.
For `C=CC(=O)N1CCC(CNc2ncnc(N)c2-c2ccc(Oc3ccccc3)cc2)CC1` [Evobrutinib], the CSF concentration in data set [3] is 3.2 ng/mL and 7.45 nM. Besides, in data set [4], the “CSF Cmax” value came out at 7.45 nM.
